Results as given in patent US20180207228A1, “PEPTIDE COMBINATIONS AND USES THEREOF FOR TREATING GRASS ALLERGY” (ALK-Abelló A/S, priority 2015, published 2018).

Key:
Type in all cases: cell-based, human
[1] = system: release of IFN-γ upon T cell activation; assay: Fluorospot assay, IFN-γ release (DK1-TCL01, US1-TCL01); conditions: head prints TCL-02 DK1; 17 TCL-01 DK1 lines
[2] = system: release of IL-5 upon T cell activation; assay: Fluorospot assay, IL-5 release (DK1-TCL01, US1-TCL01); conditions: head prints TCL-02 DK1; text: 25 TCL-01 DK1 lines
[3] = system: allergen specific T cells; assay: T cell proliferation assay (72 h) on donor derived T cell lines (TCL02/TCL03); conditions: for Proliferation % donor coverage (TCL-02 DK1): T cell lines TCL-02 DK1, 30 donors, hit criteria SI>=2, CPM>=1000; for Proliferation strength (TCL-02 DK1): T cell lines TCL-02 DK1, strength of response (average relative magnitude)

SMILES	IFN-gamma % donor coverage (TCL-02 DK1) [1] [%]	IL-5-Fluorospotr % donor coverage (TCL-02 DK1) [2] [%]	Proliferation % donor coverage (TCL-02 DK1) [3] [%]	Proliferation strength (TCL-02 DK1) [3]
C[C@H](NC(=O)CNC(=O)[C@@H](NC(=O)[C@@H]1CCCN1C(=O)[C@H](CCCCN)NC(=O)CNC(=O)[C@H](Cc1ccc(O)cc1)NC(=O)[C@H](Cc1c[nH]c2ccccc12)NC(=O)[C@@H](NC(=O)[C@@H](N)CO)[C@@H](C)O)[C@@H](C)O)C(=O)NCC(=O)N1CCC[C@H]1C(=O)N[C@@H](CCCCN)C(=O)N[C@@H](CC(=O)O)C(=O)N[C@@H](CC(N)=O)C(=O)O [compound 119]	8.00	16.67	31.03	4.20
CC[C@H](C)[C@H](NC(=O)CNC(=O)[C@@H](N)CO)C(=O)N[C@@H](C)C(=O)N[C@@H](Cc1ccccc1)C(=O)NCC(=O)N[C@@H](CO)C(=O)N[C@@H](CCSC)C(=O)N[C@@H](C)C(=O)N[C@@H](CCCCN)C(=O)N[C@@H](CCCCN)C(=O)NCC(=O)N[C@@H](CC(=O)O)C(=O)N[C@@H](CCC(=O)O)C(=O)N[C@@H](CCC(N)=O)C(=O)O [compound 117]	8.00	16.67		6.20
CSCC[C@H](NC(=O)CNC(=O)[C@H](CCCCN)NC(=O)[C@H](CCC(=O)O)NC(=O)[C@@H](NC(=O)[C@H](CC(C)C)NC(=O)[C@H](Cc1ccccc1)NC(=O)[C@H](CCCNC(=N)N)NC(=O)[C@H](Cc1ccccc1)NC(=O)[C@H](CC(N)=O)NC(=O)[C@H](Cc1ccccc1)NC(=O)[C@@H]1CCCN1C(=O)CNC(=O)[C@H](CCC(N)=O)NC(=O)[C@H](CC(C)C)NC(=O)[C@@H]1CCCN1C(=O)[C@@H](N)CCC(=O)O)[C@@H](C)O)C(=O)N[C@@H](CCCCN)C(=O)N[C@@H](CC(N)=O)C(=O)N[C@H](C(=O)O)C(C)C [compound 29]			13.33	1.70
